From publication PMC11794875, “Molecular basis for azetidine-2-carboxylic acid biosynthesis” (Nature Communications, 2025)

Test system: C[S+](CC[C@H](N)C(=O)O)C[C@H]1O[C@@H](n2cnc3c(N)ncnc32)[C@H](O)[C@@H]1O
Assay: purified protein
Details: 100 mM Tris-HCl, pH 8.0, 30 °C, apparent, substrate inhibition not considered

AzeJ (Pseudomonas aeruginosa PAO1) was tested, and the Km was 560 ± 210 µM and the kcat was 0.288 ± 0.0333 s⁻¹.
